PGC1a acetyl inh: inhibitors of PGC1a acetylation signal, primary screen, cell-based, U2OS, AlphaScreen, inhibitor mode | AlphaScreen anti-acetyl-lysine; with virally co-expressed GCN5 acetyltransferase | inhibition, % at 15.6 µM | actives 0.17% (n = 350,000);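 active means every replicate shows inhibition of at least 40%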;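 further: 0% = neutral control wells and 100% = positive control wells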
PglD DTNB: C. jejuni PglD acetyltransferase inhibitors, primary screen, biochemical, DTNB colorimetric, single point | UDP-N-acetylbacillosamine N-acetyltransferase PglD (Campylobacter jejuni) | purified PglD enzyme, DTNB colorimetric CoA detection | inhibition, % at 12.5 µM | actives 0.098% (n = 360,000) | AID 602405, 2012; in the data active means inhibition above about 16%, passing the limit was not always enough
Yeast UUG start: yeast start codon fidelity modulation | S. cerevisiae UUG-firefly luciferase reporter, luminescence/redox ratio | activity score, % at 18.7 µM | 0.13% of 350,000 active | AID 602363;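 active means replicate mean at a twofold rise or more, about +100% in these data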;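 further: firefly luciferase made from a UUG start codon reports start codon fidelity; reporter light over untreated wells divided by growth signal over untreated wells; some hits fall short of that in this replicate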
esBAF inh: Bmi1 luciferase reporter increase in mESCs, primary screen, esBAF inhibitor project, mouse ES cells, Bmi1 luciferase knock-in, single point. 24 h; 100% = twice the neutral-well signal. reporter increase, % at 12.5 µM. actives 2% (n = 350,000); in the data active means activation above about 40%;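 further: 0% = median of the plate's neutral control wells and 100% = double that signal; a rise in the Bmi1 reporter signal indicates esBAF inhibition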
E-sel inducer: E-selectin induction in HUVECs, primary screen, imaging, HUVEC, immunofluorescence imaging, single point | P16581 | normalized: neutral wells 0, TNF-alpha wells 100 | activation, % at 7.58 µM | actives 0.37% (n = 260,000) | AID 686992, 2013;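 active means mean E-selectin-positive cell signal at least 10% of the positive control, reached in at least 60% of replicates, without over 20% cell loss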
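Test system: HUVEC; input: 3,000 HUVEC/well; measured by: immunofluorescence imaging; read-out: % PE-positive cells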
C2C12 statin: suppressors of statin myotoxicity in C2C12 myotubes, primary screen, cell-based, single point, plate reader; actives 0.78% (n = 330,000); C2C12 myotubes + simvastatin, ATP luminescence, 48 h; scaled: DMSO 0, geranylgeraniol control 100; rescue of ATP level, % at 7.49 µM; AID 602340, 2012;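 active means mean ATP rescue above about 67%, or every replicate alone reaching that limit, limit read from the data, passing the limit was not always enough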;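 further: myotubes were challenged with 10 µM simvastatin during compound exposure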
* = called active by the depositor; · = not tested or not shown. This is a sample that favours compounds with a hit; in the whole collection about 2.8% have one here.

compound | PGC1a acetyl inh | PglD DTNB | Yeast UUG start | esBAF inh | E-sel inducer | C2C12 statin
CO[C@@H]1CN(C)C(=O)c2ccc(NS(=O)(=O)c3ccccc3)cc2OC[C@@H](C)N(C)C[C@@H]1C | -7.2 | 0.9 | -3.6 | 0.3 | -0.1 | -3.9
CCN(CC)S(=O)(=O)c1ccc(N2CCCCC2)c(NC(=O)C2CSC3(C)CCC(=O)N23)c1 (stereo not drawn) | -6.8 | 2.3 | -7.4 | -5.5 | -0.1 | -12.7
CC12CCC(=O)N1C(C(=O)Nc1cc(Cl)ccc1N1CCOCC1)CS2 (stereo not drawn) | 4.2 | 0.8 | 6.2 | · | 135.4* | ·
COC(=O)c1ccsc1NC(=O)CCc1ccccc1 | -2.9 | 0.9 | 10.7 | 48.1* | · | 8.0
Cc1nc(NC(=O)CCc2ccccc2)sc1C | -4.7 | -140.9 | -17.4 | 56.7* | · | 1.7
Cc1nc(NC(=S)NC(=O)c2ccccc2)sc1C | -1.6 | 8.3 | -8.2 | 44.8* | · | -28.1
C[C@@H]1CN([C@@H](C)CO)S(=O)(=O)c2ccc(-c3cccnc3)cc2O[C@@H]1CN(C)C(=O)C1CCC1 | 12.0 | 0.6 | -6.4 | -0.2 | 2.0 | -11.0
CO[C@H]1CN(C)C(=O)c2cc(NS(=O)(=O)c3cccc(F)c3)ccc2OC[C@H](C)NC[C@@H]1C | 4.0 | -1.2 | · | -3.0 | 0.4 | -12.6
C[C@H](CO)N1C[C@H](C)[C@H](CN(C)C(=O)Cc2ccccn2)Oc2cc(-c3cccc(C(=O)N(C)C)c3)ccc2S1(=O)=O | 9.8 | -7.9 | -6.0 | -4.5 | -0.3 | 29.6
C[C@@H]1CN([C@H](C)CO)C(=O)c2cccc(NS(=O)(=O)c3cn(C)cn3)c2O[C@H]1CN(C)Cc1ccc(C(=O)Nc2ccccc2N)cc1 | 7.2 | · | · | · | · | ·
COc1cccc(S(=O)(=O)N[C@@H]2CC[C@@H](CCn3cc(-c4ccccc4OC)nn3)O[C@@H]2CO)c1 | 10.7 | -2.2 | 20.3 | 6.5 | -0.2 | -0.7
Cc1ccc(NC(=O)C2(c3ccccc3)CC2(Cl)Cl)cc1C (stereo not drawn) | -2.8 | -4.0 | 4.4 | 38.2 | · | 143.1*
Cc1cccc(NC(=O)Cc2noc3ccccc23)c1 | 0.9 | 0.3 | -16.6 | 60.0* | · | 5.0
Cc1cccc(NC(=O)Cc2noc3ccccc23)c1C | · | -2.3 | -11.1 | · | · | ·
Cc1cccc(NC(=O)CCCc2ccccc2)c1 | · | -1.0 | -2.1 | 63.3* | · | -0.5
Cc1ccc(NC(=O)CCc2ccccc2)cc1C | 1.5 | 1.6 | 2.2 | 52.2* | · | 1.6
O=C(C[C@H]1CC[C@H](NC(=O)c2ccccc2)[C@@H](CO)O1)NCCc1ccncc1 | 0.2 | -1.4 | 10.2 | 3.0 | 0.0 | 1.4
CN1C(=O)c2cc(NC(=O)c3ccccc3)ccc2OC[C@@H]2O[C@H](CC(=O)O)CC[C@@H]21 | 5.6 | 0.8 | -3.2 | 3.3 | -0.1 | -7.3
COc1cc2nn(-c3ccccc3N)nc2cc1OC | · | · | · | · | 0.5 | ·
Nc1ccccc1-n1nc2ccc3ccccc3c2n1 | · | -3.4 | -27.9 | 40.6* | 6.1 | 10.4
COCC(=O)Nc1ccc2c(c1)C(=O)N(C)C[C@@H](OC)[C@H](C)CN(C(C)=O)[C@@H](C)CO2 | 2.8 | -1.0 | -11.4 | 0.9 | 0.3 | 7.0
Cc1cc(Cl)c2oc(C(=O)N(C)Cc3ccon3)c(C)c2c1 | 1.7 | -1.7 | -14.4 | 71.5* | 0.4 | -7.3
O=C(c1ccco1)N1CCN(C(=O)c2ccco2)CC1 | · | · | · | · | -0.1 | ·
Cc1cc(Cl)c2oc(C(=O)N3CCN(C(=O)c4ccco4)CC3)c(C)c2c1 | · | 1.4 | -7.7 | 52.1* | · | -16.4
Cc1cc(Cl)c2oc(C(=O)N(CCO)Cc3ccccc3)c(C)c2c1 | 0.3 | 1.1 | -6.8 | -2.8 | 0.7 | -2.8
Cc1cc(Cl)c2oc(C(=O)N(C)Cc3cc(C)[nH]n3)c(C)c2c1 | 1.8 | 5.4 | -15.9 | 1.1 | -1.4 | 0.0
Cc1cc(Cl)c2oc(C(=O)N3CCOCC3)c(C)c2c1 | -9.2 | -1.8 | 3.2 | 66.7* | 0.1 | 0.0

Of the compounds above, two contain an aryl methoxy group.
compound | PGC1a acetyl inh | PglD DTNB | Yeast UUG start | esBAF inh | E-sel inducer | C2C12 statin
COc1cccc(S(=O)(=O)N[C@@H]2CC[C@@H](CCn3cc(-c4ccccc4OC)nn3)O[C@@H]2CO)c1 | 10.7 | -2.2 | 20.3 | 6.5 | -0.2 | -0.7
COc1cc2nn(-c3ccccc3N)nc2cc1OC | · | · | · | · | 0.5 | ·
